This passage reports IC50 results from patent publication US20200352931A1, “OXALAMIDES AS MODULATORS OF INDOLEAMINE 2,3-DIOXYGENASE” (PHENEX DISCOVERY VERWALTUNGS-GMBH, priority 2017, published 2020).

Protein sequences, listed by entry. Tags and fused reporters are not part of them.
UniProt P14902, whole entry: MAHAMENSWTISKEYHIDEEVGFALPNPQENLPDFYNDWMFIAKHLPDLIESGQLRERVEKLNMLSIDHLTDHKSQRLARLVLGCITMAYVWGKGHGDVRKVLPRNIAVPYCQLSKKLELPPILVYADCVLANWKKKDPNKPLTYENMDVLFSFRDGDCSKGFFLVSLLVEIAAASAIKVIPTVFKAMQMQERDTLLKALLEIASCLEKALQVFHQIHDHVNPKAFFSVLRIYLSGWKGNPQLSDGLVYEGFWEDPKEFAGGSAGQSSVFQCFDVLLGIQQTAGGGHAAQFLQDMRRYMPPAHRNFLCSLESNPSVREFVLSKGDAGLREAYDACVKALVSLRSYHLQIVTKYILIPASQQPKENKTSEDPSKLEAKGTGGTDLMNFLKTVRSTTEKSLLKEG

This test has as its target Indoleamine 2,3-Dioxygenase (IDO1) in SKOV-3 cells (Homo sapiens, UniProt P14902). Put plainly: SKOV-3 cellular indoleamine 2,3-dioxygenase assay. The settings on record: read-out: cell based activity (IC50), 50 ng/ml Interferon gamma, 100 μM L-Tryptophan, 24 hours, N-Formylkynurenin fluorescence. As to the method:
SKOV-3 Cellular Indoleamine 2,3-Dioxygenase Assay
SKOV-3 cells were obtained from the American Type Culture Collection (ATCC® HTB-77™) and maintained in McCoy's medium (Pan Biotech) supplemented with 10% fetal bovine serum and 1% Penicilin/Streptomycin. Cells were kept at 37° C. in a humidified incubator with 5% CO2. For assay preparation, cells were seeded at a density of 2*10^5/m into black clear bottom 96 well plates in 100 μl medium/well supplemented with 50 ng/ml Interferon gamma (eBioscience, Thermo Fisher Scientific). After cells fully adhered to the plate, dilution series of compounds were added in medium containing additional L-Tryptophan to a final L-Tryptophan concentration of 100 μM. The cells were incubated for 24 hours. Detection of produced N-Formylkynurenin was performed by addition of 3-Methylpiperidine to a final concentration of 200 mM. The plates were sealed and heated to 65° C. for 20 minutes in a water bath. After cooling the fluorescence of each well was recorded with a Victor™ X4 (PerkinElmer) plate reader at an emission wavelength of 535 nm and excitation at 405 nm (Tomek et al.; Anal Bioanal Chem (2013) 405:2515-2524., Tomek et al.; Biochim Biophys Acta. 2015 September; 1850(9):1772-80).

`O=C(Nc1ccc(C(F)(F)F)cc1)C(=O)N1CCC2(CC1)OCc1cc(Cl)ccc12`: the IC50 lay in the range of 100 to 1000 nM.
